## Apparent affinities of Ab-91 variants for a coronavirus HR2 peptide

The target is the same throughout: PDVDLGDISGINAS, from the HR2 region of SARS-CoV-2 spike.

Parent scFv Ab-91: VL joined to VH by a 15-residue (Gly4Ser)3 linker. Changes lie in the heavy chain CDRs alone.
VL: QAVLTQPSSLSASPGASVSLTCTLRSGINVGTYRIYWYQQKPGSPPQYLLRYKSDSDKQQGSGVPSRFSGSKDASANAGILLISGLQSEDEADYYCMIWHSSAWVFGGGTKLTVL
VH: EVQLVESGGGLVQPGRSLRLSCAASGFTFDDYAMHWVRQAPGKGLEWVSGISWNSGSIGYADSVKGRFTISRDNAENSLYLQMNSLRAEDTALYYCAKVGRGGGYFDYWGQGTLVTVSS

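Library AAYL51 holds single substitutions and randomly drawn double and triple substitutions in the CDRs. The assay is AlphaSeq: two haploid yeast populations carry antibody and antigen on their surface. The frequency of each diploid, read from paired DNA barcodes, reflects how well the two displayed proteins bind. The ratio of observed to expected reads was calibrated, replicate by replicate, on BCL2-family standards whose Kd was known from biolayer interferometry. Each pool was mated in three replicate cultures.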

Substitutions are numbered in sequence along the VH above, starting at 1 (not Kabat). The read-out is the apparent dissociation constant on a log10 scale (nM): the lower, the stronger. "nd" means that the variant was in the library but no mating with the target was seen in that replicate; the authors take this as a sign of poor binding, and no number exists.

changes | log10 Kd (nM) by replicate
W53Y/G56L/R101Y | 2.20 / 1.81 / 3.00
W53V/V99T/Y105D | nd / nd / nd
S57H/G100A/F106E | nd / 6.07 / nd
F29I/I51C/D107G | nd / nd / nd
F27P/V64R/V99F | nd / 3.67 / 5.46
F29V/W53L | 5.24 / nd / nd
F27K/D31I/I51Q | 4.40 / 5.17 / nd
A33P/G59N/R101F | nd / 4.91 / nd
F29R/G59K/K65F | 4.27 / 4.79 / nd
S52K/A61Y/G100T | nd / nd / nd
H35E/G50H/G104Y | nd / 2.95 / nd
F29Y/G59D/G102Q | 3.86 / 3.68 / nd
I51K/V99G | nd / nd / nd
A61N/G103W/Y105L | nd / 4.99 / nd
A33M/G102W/Y108F | nd / nd / nd
S57A/V99W/G100A | 4.27 / nd / nd
S55C/V64A/F106R | 4.05 / 3.66 / nd
I51T/S57Y/S63L | nd / nd / nd
A33T/G103C/F106V | nd / nd / nd
Y32N/Y105S/D107K | 4.85 / 6.37 / 4.75
F27N/F29V/I51P | nd / nd / nd
D31K/W53S | 1.42 / 1.94 / 1.27
F27N/D30G/S55H | 4.68 / nd / nd
F27V/F29K/G100I | nd / nd / nd
F29T/S57Q/G104S | nd / nd / nd
F27H/I51R/Y105K | nd / 5.40 / nd
D30L/H35N/G56I | 5.92 / 4.33 / 5.56
G26Q/D31E/Y108P | nd / nd / nd
D31V/G56L | 1.64 / 1.36 / 0.75
G26C/S55G/Y60E | nd / nd / nd
G26F/F27Y/W53Q | 2.81 / 2.37 / nd
G50Y/G103R/Y108G | nd / nd / nd
G56T/I58Q/D62Q | 2.08 / 2.23 / 2.18
G56D/I58Y/G102R | nd / nd / nd
S57A/A61Q/S63G | 2.62 / nd / nd
D31Y/A33W/A61Y | nd / 3.79 / nd
H35W/S57G/G100L | 4.17 / 5.26 / 5.58
T28Q/W53H/V99P | 4.85 / 6.26 / 4.81
F29Q/Y60E/R101V | nd / nd / nd
F29Q/G56W/A61N | 4.64 / nd / nd
A33D/G100E/Y105P | nd / 5.30 / 4.73
F27D/S52W | nd / nd / nd
D31M/M34S/G50E | 4.84 / nd / nd
A33H/G50Q/F106G | nd / nd / nd
S57Q/V99H/G102A | nd / nd / nd

For reference, the parent read 1.86 as the reference entry and 0.88 as a member of this library. As a blank, each scFv also met three strains without target: over library AAYL51, 21% of these pairings were detected, typically at 4.54 and seldom below 3.26.

Data: MIT Lincoln Laboratory AlphaSeq set, Engelhart et al. 2022, doi:10.1038/s41597-022-01779-4, as distributed in FLAb.